What was measured:
[1] = Pharmacokinetics in Meth A tumor-bearing mice; assay type: in vivo, mouse; conditions: single administration, 10 mg/kg calculated as the drug compound; FIG. 24
Method: Meth A tumor-bearing mice were prepared according to a similar manner to that of Example 11, the drug complex of Example 15 was given as single administration in a similar manner to that of Example 12 (10 mg/kg: calculated as the drug compound), and the change of the drug complex concentration in various tissues was determined.

[2] = system: mouse fibrosarcoma Meth A cells; assay: Antitumor activity, Meth A tumor-bearing mice, single administration; assay type: in vivo
Method: Meth A tumor-bearing mice (6 mice per group) were prepared according to a similar manner to that of Example 11 and the antitumor activity was compared to that obtained by single administration of the drug complexes of Examples 8 and 9 once on day 7. As a result, the degree of the antitumor activity was as follows: (Polysaccharide derivative)-Gly-Gly-Phe-Gly-NH—A′>(Polysaccharide derivative)-Gly-Gly-Gly-Phe-NH—A′>the drug compound, per se.
(§1) Meth A tumor-bearing mice (6 mice per group) were prepared according to a similar manner to that of Example 11 and the antitumor activity of the drug complex of Example 15 was examined by single administration in a similar manner to that of Example 12.
as §1, with “11,” for “11”, “41” for “15”, “in the cases of” for “by”, “12, and its antitumor activity was compared to that of the drug compound, per se. […]” for “12.”
Meth A tumor-bearing mice (6 mice per group) were prepared according to a similar manner to that of Example 11, and antitumor activity of the drug complex of Example 44 was examined according to a similar method to that of Example 12 by single administration, and its antitumor activity was compared to that of the drug compound (Doxorubicin), per se.

Row | Substance | tumor selectivity against liver and small intestine [1] | Numbers of died mice/mice used ([2]; Example 61, 5 mg/kg calculated based on the drug compound) | Numbers of died mice/mice used ([2]; Example 61, 10 mg/kg calculated based on the drug compound) | Numbers of died mice/mice used ([2]; Example 61, 20 mg/kg calculated based on the drug compound) | Numbers of died mice/mice used ([2]; Example 61, 40 mg/kg calculated based on the drug compound)
1 | carboxymethyldextran polyalcohol-Gly-Gly-Phe-Gly-NH—A′ (A—NH2=DX-8951) [Example 15] | high | – | – | – | –
2 | carboxymethyldextran polyalcohol-Gly-Gly-Phe-Gly-DXR [Example 44] | – | 0/6 | 0/6 | 0/6 | 0/6

Reference: US6838450B2, “Drug complex” (Daiichi Pharmaceutical Co., LTD, priority 1996, dated 2005)
